Reference: US11773096B2, “Small-molecule PI5P4K alpha/beta inhibitors and methods of treatment using same” (YALE UNIVERSITY, priority 2018, dated 2023)

Sequences of proteins named here, by UniProt entry; tags and fusion partners are left off. A change or cut given only in a name is not applied to a line headed by its entry.
UniProt P48426: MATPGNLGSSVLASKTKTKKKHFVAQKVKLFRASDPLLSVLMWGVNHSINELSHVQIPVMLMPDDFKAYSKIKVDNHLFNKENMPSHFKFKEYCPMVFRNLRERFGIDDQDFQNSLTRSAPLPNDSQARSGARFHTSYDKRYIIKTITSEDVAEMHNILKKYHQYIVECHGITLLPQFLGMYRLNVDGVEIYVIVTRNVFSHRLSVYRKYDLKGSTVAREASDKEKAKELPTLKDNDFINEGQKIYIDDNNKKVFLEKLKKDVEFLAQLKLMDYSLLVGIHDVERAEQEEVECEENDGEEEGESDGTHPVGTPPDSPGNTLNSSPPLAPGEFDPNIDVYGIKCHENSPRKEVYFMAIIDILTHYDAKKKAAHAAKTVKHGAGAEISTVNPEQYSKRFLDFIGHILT

Target: PI5P4Kα (Homo sapiens, UniProt P48426)
Test: Competitive fluorescent binding assay with TNP-ATP
Details: read-out: Kd for TNP-ATP; change in fluorescence, 6 μM TNP-ATP, different amounts of kinase

## 2,4,6-trinitrophenol-adenosine triphosphate
  Kd: 13 µM
